## scFv variants of Ab-91 (heavy chain) against a SARS-CoV-2 spike peptide

Source: Engelhart et al. 2022 (doi:10.1038/s41597-022-01779-4), MIT Lincoln Laboratory and A-Alpha Bio; data file from the FLAb repository.

Target peptide (SARS-CoV-2 spike, HR2 region): PDVDLGDISGINAS

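The parent was found by panning a naive human phage display library on the peptide. Variants in AAYL51 differ from the parent at up to three CDR positions; double and triple changes were sampled at random. AlphaSeq pools MATa yeast showing the antibodies with MATalpha yeast showing the peptide. Mating (16 h, 30 °C) was followed by selection of diploids and sequencing of their barcodes. Scores were corrected for input abundance and mapped to Kd with protein pairs of known affinity run in the same pool. Mating was done three times.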

Parent scFv Ab-91: VL joined to VH by the linker GGGGSGGGGSGGGGS. Changes lie in the heavy chain CDRs alone.
VL: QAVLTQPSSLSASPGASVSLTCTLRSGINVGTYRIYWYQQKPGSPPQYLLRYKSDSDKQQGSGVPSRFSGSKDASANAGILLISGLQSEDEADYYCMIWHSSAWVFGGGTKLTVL
VH: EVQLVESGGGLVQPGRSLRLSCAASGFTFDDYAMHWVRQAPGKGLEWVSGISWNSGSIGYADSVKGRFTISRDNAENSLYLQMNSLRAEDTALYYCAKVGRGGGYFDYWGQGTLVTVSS

Changes read parent residue, position, new residue, counted from the first residue of the VH shown.
Every variant below is changed at H35 of the VH (sequential numbering).
The Kd shown is the geometric mean over detected replicates; a lower Kd is a better binder.
Where no diploid with the target was found in any replicate, the entry reads "no signal": below detection, most likely a poor binder, though not proof of it.
Three control strains display no target. For library AAYL51, 21% of the pairings with them gave a signal, with a median of 34 µM and one signal in twenty below 1.8 µM, so weak values seen in few replicates may be background. The control count says in how many pairings with the empty strains this scFv gave a signal.

Variant H35N S57T V64S gave 7.3 µM (2 of 3 replicates; controls 6 of 9).
Variant F27W H35A G104Y gave no signal (0 of 3 replicates; controls 0 of 9).
Variant T28D H35D V99M gave 6.5 µM (1 of 3 replicates; controls 2 of 9).
Variant F27M H35K S57T gave no signal (0 of 3 replicates; controls 0 of 9).
Variant H35Y W53A I58H gave no signal (0 of 3 replicates; controls 2 of 9).
Variant H35L gave no signal (0 of 3 replicates; controls 1 of 9).
Variant Y32E H35D A61R gave 200 µM (2 of 3 replicates; controls 4 of 9).
Variant H35D N54P Y108G gave 200 µM (3 of 3 replicates; controls 6 of 9).
Variant H35E S52L A61F gave 180 µM (2 of 3 replicates; controls 3 of 9).
Variant D30V H35E S52I gave no signal (0 of 3 replicates; controls 0 of 9).
Variant H35I G100I D107T gave no signal (0 of 3 replicates; controls 1 of 9).
Variant Y32K H35Q S57Y gave no signal (0 of 3 replicates; controls 1 of 9).
Variant H35N N54C G100F gave no signal (0 of 3 replicates; controls 0 of 9).
Variant H35G N54V G56R gave 48 µM (2 of 3 replicates; controls 7 of 9).
Variant D31F H35A G103I gave 12 µM (2 of 3 replicates; controls 3 of 9).
Variant D31K H35Q V64I gave no signal (0 of 3 replicates; controls 0 of 9).
Variant H35G I58Y R101V gave 95 µM (3 of 3 replicates; controls 6 of 9).
Variant A33L H35E V99E gave no signal (0 of 3 replicates; controls 3 of 9).
Variant G26F H35P N54M gave 130 µM (3 of 3 replicates; controls 5 of 9).
Variant H35N I51N Y105V gave 170 µM (3 of 3 replicates; controls 9 of 9).
Variant A33P H35W Y108Q gave 310 µM (1 of 3 replicates; controls 6 of 9).
Variant H35A V99L gave 2.8 µM (1 of 3 replicates; controls 1 of 9).
Variant H35A A61K K65I gave 74 µM (1 of 3 replicates; controls 1 of 9).
Variant H35T A61Q D107W gave 16 µM (2 of 3 replicates; controls 3 of 9).
Variant M34F H35S Y60W gave 57 µM (3 of 3 replicates; controls 7 of 9).
Variant H35T Y60H K65L gave 140 µM (2 of 3 replicates; controls 3 of 9).
Variant G26E H35F S52G gave no signal (0 of 3 replicates; controls 1 of 9).
Variant M34F H35W D107H gave 480 µM (1 of 3 replicates; controls 6 of 9).
Variant H35F K65W G100T gave no signal (0 of 3 replicates; controls 2 of 9).
Variant H35Q G56N S57T gave no signal (0 of 3 replicates; controls 0 of 9).
Variant H35P V99T gave 25 µM (1 of 3 replicates; controls 0 of 9).
Variant H35S S57A G59F gave 4.2 µM (1 of 3 replicates; controls 1 of 9).
Variant H35V W53N S57L gave 36 µM (1 of 3 replicates; controls 1 of 9).